kon (M-1-s-1) and IC50 data for two molecules are collected here from BindingDB's records for 18479118, “Exploiting protein fluctuations at the active-site gorge of human cholinesterases: further optimization of the design strategy to develop extremely potent inhibitors” (2008).

Protein sequences, listed by entry. Tags and fused reporters are not part of them. Residues count along the entry.
UniProt P22303, 32-614 limits assumed: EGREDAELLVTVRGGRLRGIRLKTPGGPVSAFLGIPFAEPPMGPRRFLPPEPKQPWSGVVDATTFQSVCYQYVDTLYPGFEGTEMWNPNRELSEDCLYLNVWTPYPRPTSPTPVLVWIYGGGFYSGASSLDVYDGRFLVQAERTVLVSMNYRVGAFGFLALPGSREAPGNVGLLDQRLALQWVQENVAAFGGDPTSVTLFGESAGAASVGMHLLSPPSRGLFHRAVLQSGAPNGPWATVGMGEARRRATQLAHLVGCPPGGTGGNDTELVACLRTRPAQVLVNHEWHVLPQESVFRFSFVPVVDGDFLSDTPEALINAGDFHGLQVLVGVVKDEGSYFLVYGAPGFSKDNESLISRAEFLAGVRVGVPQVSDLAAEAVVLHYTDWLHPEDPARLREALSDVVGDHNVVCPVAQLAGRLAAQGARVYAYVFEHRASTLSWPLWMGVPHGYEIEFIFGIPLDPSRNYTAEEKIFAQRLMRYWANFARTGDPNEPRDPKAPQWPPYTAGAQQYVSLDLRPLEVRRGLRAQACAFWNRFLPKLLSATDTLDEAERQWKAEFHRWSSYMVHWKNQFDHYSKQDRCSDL
UniProt P23795, 31-613 limits assumed: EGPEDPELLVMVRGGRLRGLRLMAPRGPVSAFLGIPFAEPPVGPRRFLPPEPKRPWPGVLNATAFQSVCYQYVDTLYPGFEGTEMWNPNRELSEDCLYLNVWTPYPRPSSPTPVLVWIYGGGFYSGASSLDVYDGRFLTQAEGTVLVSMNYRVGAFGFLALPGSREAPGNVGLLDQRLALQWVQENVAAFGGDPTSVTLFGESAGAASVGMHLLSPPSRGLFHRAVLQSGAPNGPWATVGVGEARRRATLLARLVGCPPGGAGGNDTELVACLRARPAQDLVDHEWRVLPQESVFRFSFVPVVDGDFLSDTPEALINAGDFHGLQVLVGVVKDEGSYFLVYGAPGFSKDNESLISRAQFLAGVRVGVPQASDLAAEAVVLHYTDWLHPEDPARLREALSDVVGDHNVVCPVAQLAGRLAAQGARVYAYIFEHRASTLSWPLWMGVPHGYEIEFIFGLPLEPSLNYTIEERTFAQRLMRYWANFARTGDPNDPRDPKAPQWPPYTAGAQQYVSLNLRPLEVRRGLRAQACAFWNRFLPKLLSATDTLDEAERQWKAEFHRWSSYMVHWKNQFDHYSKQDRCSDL

As a reminder, the IC50 is the concentration needed to halve the response being measured.

The target in experiment [1] is Acetylcholinesterase (Homo sapiens, UniProt P22303). Briefly: ASSAY_NAME: ChEMBL_555809 (CHEMBL965669) DESCRIPTION: Inhibition of human AChE.
Experiment [2] deals with Acetylcholinesterase (Bos taurus, UniProt P23795). Briefly: ASSAY_NAME: ChEMBL_552468 (CHEMBL999085) DESCRIPTION: Inhibition of bovine AChE.

Molecules are shown by their SMILES.

`CCOP(=O)(O)N(c1ccc(SC)c(C)c1)C(C)C` displayed a kon (M-1-s-1) at Acetylcholinesterase [1] of 0.33 M⁻¹ s⁻¹.

For `CC[N+](CC)(CC)CCOc1cccc(OCC[N+](CC)(CC)CC)c1OCC[N+](CC)(CC)CC`, the IC50 on Acetylcholinesterase [2] stood at 8.76 mM.
